1 compound from US9006228B2 (Merck Sharp & Dohme Corp., priority 2011, dated 2015) can be followed below.

Protein sequences, listed by entry. Tags and fused reporters are not part of them. Residues count along the entry.
UniProt Q8TDV5, 1-308 limits assumed: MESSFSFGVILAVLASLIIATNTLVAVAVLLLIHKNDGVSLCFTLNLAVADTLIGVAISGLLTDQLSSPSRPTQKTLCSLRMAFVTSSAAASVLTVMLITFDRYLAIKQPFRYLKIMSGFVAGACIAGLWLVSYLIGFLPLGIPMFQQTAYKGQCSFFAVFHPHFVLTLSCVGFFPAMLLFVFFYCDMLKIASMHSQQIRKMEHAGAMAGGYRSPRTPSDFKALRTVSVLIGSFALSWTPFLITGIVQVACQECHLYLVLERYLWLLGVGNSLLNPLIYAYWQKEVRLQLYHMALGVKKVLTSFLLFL

Each structure is given as a SMILES string.

For this assay, the target named is human GPR119 (Homo sapiens, UniProt Q8TDV5). Kind of assay: Measurement of GPR119 signaling (cAMP assay; LANCE kit or HTRF) in HEK293 cells stably transfected with human GPR119. Particulars: read-out: GPR119 Human EC50; agonist-stimulated cAMP in HEK293 cells expressing human GPR119. (Cyclic AMP is a second messenger, typically raised through Gs and lowered through Gi signalling.)

In general, EC50 refers to the concentration at which the effect is half-maximal. Consider `CCc1cnc(N2CCC([C@H]3C[C@H]3COCc3ccc(-c4cncs4)cc3)CC2)nc1`, for which the EC50 came to 2.2 nM.
